Experimental findings from patent US4594342A, “1,5-benzothiazepine derivative” (priority 1984, dated 1986) are described below.

In one experiment the test system is Rat platelets. Briefly: Inhibitory effects in vitro on collagen-induced platelet aggregation of rat platelets (Experiment 1). In kind it is cell-based. The source says: (§1) (Inhibitory effects in vitro on collagen-induced platelet aggregation of rat or human platelets)
(§2) The bottom layer was further centrifuged to give platelet-poor plasma ("PPP") as the supernatant solution. Platelet counts were adjusted to about 0.8-1×10^6 /mm^3 for rat PRP and about 4×10^5 /mm^3 for human PRP by dilution with PPP.

The next experiment has as its system Human platelets. Kind of experiment: Inhibitory effects in vitro on collagen-induced platelet aggregation of human platelets (Experiment 1). In kind it is cell-based.
Text: as §1, §2

Converted amounts (≈) assume the structure as drawn.

As to `CC(=O)Oc1ccccc1C(=O)O` [Acetylsalicylic acid, reference compound], the IC50 in the experiment on Rat platelets (Rattus norvegicus, Platelet, read-out: IC50 (concentration of test compound required to induce 50% inhibition of collagen-induced platelet aggregation)) was roughly 45 µg/mL (≈ 250 µM); with Human platelets (Homo sapiens, Platelet, read-out: IC50 (concentration of test compound required to induce 50% inhibition of collagen-induced platelet aggregation)), roughly 20 µg/mL (≈ 111 µM). In addition, the “IC50 (concentration of test compound required to induce 50% inhibition of collagen-induced platelet aggregation)” value is reported as “about 45 μg/ml” in the experiment on Rat platelets (rat platelets, in vitro, rat PRP, collagen-induced, 37° C.) and “about 20 μg/ml” with Human platelets (human platelets, in vitro, human PRP, collagen-induced, 37° C.).
